The values below are quoted from earlier work in paper PMC10633918.

pKd: −log10 of the molar value.

In general, pKd refers to −log10 of the Kd, conventionally taken in molar units.

Data set [1] has as its target PSMα3 (Staphylococcus aureus).

With “alpha-synuclein (type B* oligomers) (from UniProt P37840)”, the values for the pKd (in data set [1]; with LL-37 (Homo sapiens)) were 8.44 and 8.29, respectively.
